Patent US20130084328A1, “METHYLATED CODING AND NON-CODING RNA GENES AS DIAGNOSTIC AND THERAPEUTIC TOOLS FOR HUMAN MELANOMA” (Sanford-Burnham Medical Research Institute, priority 2011, published 2013)

Key:
WM1552C melanoma cells = assay: cellular morphology of stable miR-375-expressing melanoma cells; assay type: cell-based, human; conditions: light microscopy, vs wild type and vector control cells
Procedure: Changes in cellular morphology of stable miR-375-expressing melanoma cells were measured compared with “vector-only” and untransfected cells, as shown in FIG. 4. To construct a stable miR-375-expressing melanoma cell line, oligonucleotides complimentary to the has-miR-375 genomic sequences were constructed with miR-375 pre For (CCC CGC GAC GAG CCC C; SEQ ID NO:27) and miR-375 pre Rev (GCC TCA CGC GAG CCG AAC G; SEQ ID NO:28). These oligonucleotides contained HindIII and BamHI sites on their respective 5′ and 3′ ends and were amplified from melanocyte genomic DNA (Amplitaq Gold, Applied Biosystems/Life Technologies). The product was then TOPO-cloned into pCR4-TOPO (Invitrogen/Life Technologies) and the vector construct was sequenced. The pre-hsa-miR-375 fragment was sub-cloned into pcDNA4/H1 using the HindIII and BamHI sites to create pcDNA/H1/miR-375. […] The following day, cells were selected with 800 μg/mL Zeocin for the following 15 days.
Live cells were imaged under normal culturing conditions by light microscope (Olympus IX71). The morphology time course was performed with cells growing exponentially, trypsinized and seeded with 2×10^4 cells into 4-well Lab-Tek II chamber slides (Thermo Fisher Scientific), with one slide per time point. […] The slides were then labeled with DAPI and fluorescence-labeled phalloidin, then imaged on a Nikon Eclipse microscope.

WM1552C cells [1] = assay: proliferation assay, miR-375; assay type: cell-based, human; conditions: WM1552C/375 vs WM1552C or WM1552C/VO, sustained over 96 hour
Procedure: Exponentially growing cells were trypsinized and counted with the help of a Countess cell counter (Invitrogen/Life Technologies) and seeded at 10^4 cells/cm^2 (0.1×10^6 cells/35-mm petri dish), which was taken as the initial value (N0) for all growth kinetics measurements. Cells were harvested at 24-hrs intervals up to 72 hrs by trypsinization. A minimum of 6 observations spread over 2 independent experiments were taken for determining the proliferation rate ‘pR’:
where N0=number of cells at 0 h, and Nt=number of cells at time ‘t’. The mean doubling time of untreated cells was calculated from the exponential region of the growth curves, in this case between 24 hrs and 72 hrs.

WM1552C cells [2] = assay: Matrigel invasion assay, miR-375; assay type: cell-based, human; conditions: WM1552C/375, 48 hrs
Procedure: BD BioCoat™ growth factor reduced insert plates (Matrigel™ Invasion Chamber 12 well plates) were prepared by rehydrating the BD Matrigel™ matrix coating in the inserts with 0.5 ml of culture medium for 2 hrs at 37° C. The rehydration solution was carefully removed from the inserts, 0.75 mL Complete Tu medium containing chemoattractant (1% FBS) was added to the lower wells of the plate, and 0.5 mL of cell suspension (1×10^4 cells, in serum-free medium) was added to each insert well. Invasion assay plates were incubated for 48 hrs at 37° C. Following incubation, the non-invading cells were removed by scrubbing the upper surface of the insert. The cells on the lower surface of the insert were stained with crystal violet and each trans-well membrane mounted on a microscopic slide for visualization and analysis. The slides were scanned using the Scanscope digital slide scanner, and the number of cells migrating was counted using Aperio software.

WM1552C cells [3] = assay: wound-healing motility assay, miR-375; assay type: cell-based, human; conditions: WM1552C/375, by 20 hours
Procedure: The in vitro motility of transfectants was measured in a wound-healing assay conducted as follows. […] The cell monolayers were gently scratched with a pipette tip across the diameter of the dish and rinsed extensively with medium to remove cellular debris. The surface area of the scratch was quantified immediately after wounding and then again every 20 minutes for 24 hours on the Nikon Bio Station IM. The extent of wound closure was established by calculating the ratio between the surface area of the wound for each time point versus the surface area of the initial wound. […] The surface area was determined using NIS Elements software and performed in triplicates.

TERC = TERC expression in Aza-treated WM1552C cells; assay type: cell-based, human
WM1552C cells [4] = assay: miRNA expression profiling after 5AzadC and/or 4-PBA treatment (TLDA, NCode, qRT-PCR); assay type: cell-based, human; conditions: for expression level of epigenetically regulated miRNAs: melanoma-derived cell lines, treated vs untreated
Procedure: The assay was performed in duplicate. For cDNA synthesis and real-time PCR by Taqman Low Density Array (TLDA), total RNA (800 ng) was subjected to 8 separate reverse transcription reactions (100 ng each) using Multiplex RT for TaqMan® MicroRNA Assays, Human Pool Set kit (Applied Biosystems/Life Technologies). The resulting cDNA (10 μL) was diluted 1:62.5 with nuclease-free water. TLDAs consisting of a panel of 365 human miRNAs and 3 miRNA endogenous controls were run in triplicate for each sample. Diluted cDNA (50 μL) was added to 50 μL of 2× TaqMan Universal Master Mix (No AmpErase UNG; Applied Biosystems/Life Technologies). This 100-4, mixture was applied to the respective array port and the TLDA was then centrifuged twice and sealed. Quantitative real-time PCR was performed using the Applied Biosystems 7900 Real-Time PCR Sequence Detection System with the following thermal cycling parameters: 94.5° C. for 30 s followed by 40 cycles of 97° C. for 30 s, 59.7° C. for 1 min. To identify transcriptional changes in melanoma cells induced by DNA methylation and/or histone modification, WM1552 cells were treated as above with 5AzadC, 4-PBA, or with both. Following exposure, cellular miRNA expression was compared between treated and untreated cells using two miRNA expression profiling platforms (TILDA; ABI and NCode; Lifetech).

miR-34b CpG island = assay: bisulfite sequencing of miR-34b CpG island in 5-Aza-dC-treated cells; assay type: cell-based, human; conditions: WM1552C
miR-375 CpG island = assay: bisulfite sequencing of miR-375 CpG island in 5AzadC-treated cells; assay type: cell-based, human; conditions: WM1552C cells; 68.2% without treatment
miR-34b = assay: Northern blot of miR-34b expression after 5-Aza-dC; assay type: cell-based, human; conditions: WM1552C
miR-375 = conditions: WM1552C cells, Northern blotting

| Compound | cell morphology (WM1552C melanoma cells) | reduction of proliferation (WM1552C cells [1]) | invasion frequency relative to wild type or vector-expressing cells (WM1552C cells [2]) | wound closure (WM1552C cells [3]) | TERC expression (TERC) | expression level of epigenetically regulated miRNAs (WM1552C cells [4]) | miR-34b expression (WM1552C cells [4]; qRT-PCR, FIG. 1B) | CpG island methylation of miR-34b (miR-34b CpG island) | methylation level of miR-375 CpG island after treatment (miR-375 CpG island) | concentration of maximum induction of miR-34b expression (miR-34b) | expression of miR-34b (miR-34b; increasing concentrations) | miR-375 expression (miR-375) |
| --- | --- | --- | --- | --- | --- | --- | --- | --- | --- | --- | --- | --- |
| miR-375: nucleic acid exemplified by SEQ ID NO:1 (UUUGUUCGUUCGGCUCGCGUGA); stably expressed in WM1552C from pcDNA4/H1 vector (WM1552C/375) (UUUGUUCGUUCGGCUCGCGUGA) | more slender and elongated shape | 10 to 15% | less than 50% | less than 30% | – | – | – | – | – | – | – | – |
| Nc1ncn([C@H]2C[C@H](O)[C@@H](CO)O2)c(=O)n1 [5AzadC, 5-aza-2′-deoxycytidine] | – | – | – | – | up-regulation | markedly increases | strongly modulated | largely erased | 16.7% | 10 µM | induced | – |
| O=C(O)CCCc1ccccc1 [4-PBA, 4-phenylbutyrate] | – | – | – | – | – | no statistically significant effects | – | – | – | – | – | but not by 4-PBA treatment |
